“Also recorded” adds a separate entry of the source.
How the values were obtained:
DiFi human CRC cells = experiment: Immunoblotting of markers in DiFi cells (WT KRAS) after 24 hr drug exposure; assay type: cell-based; details: for pERK levels: 24 hr
Experimental: In these studies, cultured cells were exposed to drug for 24 hr, harvested, and the protein levels of various markers were assayed by immunoblotting. […] Consistent with activation of cAMP signaling stemming from the production and cell utilization of progesterone, we found pPKA elevated following treatment with the TSPO ligand.

[1] = test system: DiFi colorectal cancer xenografts; experiment: TSPO and Ki67 immunohistochemistry in DiFi CRC xenografts after mAb-C225; assay type: in vivo, athymic nude mice; details: for TSPO expression in tumors (immunohistochemistry): DiFi xenografts (WT KRAS), compared with vehicle treated cohorts
Excerpt: One embodiment of the present invention is measuring TSPO expression in tumors to evaluate treatment response. […] We have considerable previous experience with the DiFi model (wt KRAS), which was derived from a rectal tumor arising in a patient with familial polyposis.
Additionally, embodiments of the present invention are methods for predicting response to therapy. […] We have considerable experience with DiFi xenografts (wt KRAS), derived from a rectal tumor arising in a patient with familial polyposis.

For “C225: therapeutic monoclonal antibody that blocks ligand-induced activation of the epidermal growth factor receptor (EGFR)”, the “cleaved caspase 3 levels (apoptosis)” value (DiFi human CRC cells; C225 single agent) was “apoptosis was induced by the elevated dosage of C225 (++) only”, the pERK levels (DiFi human CRC cells; C225 single agent 0.5 μg/mL (+)) was “in sufficient to yield pERK inhibition” and the pERK levels (DiFi human CRC cells; C225 single agent 5.0 μg/mL (++)) was “fully inhibited pERK levels”. The “TSPO expression in tumors (immunohistochemistry)” value [1] was “significantly decreased”, the “TSPO expression in tumors (immunohistochemistry)” value ([1]; listed as mAb-C225) was “significant reduction of TSPO; also recorded: significantly reduced” and the “Ki67 (proliferation) in tumors” value ([1]; DiFi xenografts, single therapeutic dose) was “significantly reduced”.
